The target of this assay is Adenosine A2 receptor (Rattus norvegicus, UniProt P29276+P30543). Format: protein assay.

The chains behind the UniProt entries cited, without tags or fusion partners. Where a name states a change or a piece, a line headed by the entry shows the natural chain unless it says otherwise.
UniProt P29276: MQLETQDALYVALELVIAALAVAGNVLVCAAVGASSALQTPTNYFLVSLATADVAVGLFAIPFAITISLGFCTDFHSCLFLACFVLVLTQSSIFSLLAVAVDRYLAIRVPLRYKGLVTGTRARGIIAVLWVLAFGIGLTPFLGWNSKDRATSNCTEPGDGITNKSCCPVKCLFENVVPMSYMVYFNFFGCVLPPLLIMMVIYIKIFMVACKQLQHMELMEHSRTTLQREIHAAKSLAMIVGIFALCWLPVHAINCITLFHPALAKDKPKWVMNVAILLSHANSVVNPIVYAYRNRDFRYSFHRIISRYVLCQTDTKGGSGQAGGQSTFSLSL
UniProt P30543: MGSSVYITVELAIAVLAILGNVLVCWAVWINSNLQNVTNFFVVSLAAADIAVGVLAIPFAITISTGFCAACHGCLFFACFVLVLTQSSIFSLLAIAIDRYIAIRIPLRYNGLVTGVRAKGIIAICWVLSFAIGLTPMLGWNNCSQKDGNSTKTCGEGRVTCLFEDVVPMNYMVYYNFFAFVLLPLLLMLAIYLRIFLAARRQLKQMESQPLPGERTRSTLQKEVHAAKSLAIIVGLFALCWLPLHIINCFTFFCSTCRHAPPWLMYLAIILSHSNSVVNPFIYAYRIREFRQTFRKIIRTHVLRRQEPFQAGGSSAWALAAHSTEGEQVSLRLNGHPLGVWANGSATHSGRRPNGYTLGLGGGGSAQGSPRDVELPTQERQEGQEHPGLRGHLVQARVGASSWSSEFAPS

By Ki is commonly meant a dissociation constant, usually derived from enzyme kinetics or from competition with a known ligand. A high value points to a looser hold on the target.

SMILES strings stand for the structures.

For the compound `CCCCC#Cc1nc(N)c2ncn([C@@H]3O[C@H](CO)[C@@H](O)[C@H]3O)c2n1`, the Ki is reported as 2.4 nM.
